In PMC5193075 (The Journal of Pharmacology and Experimental Therapeutics, 2017):

Tested on: cryopreserved human primary hepatocytes
Assay: Drug depletion
Details: pooled hepatocytes data; parentheses = relative standard error

interwell variability in unbound intrinsic clearance (IWV): 23.6% (54.4%) CV%
SMILES: O=C(O)Cc1ccccc1Nc1c(Cl)cccc1Cl [Diclofenac, diclofenac]
